Assay results from PubChem BioAssay AID1468 (National Center for Advancing Translational Sciences (NCATS), 2008).
The list shows a part of the results, in another mix than the full data. Some tests of the compounds listed are not included; inactive here does not mean inactive elsewhere. Results filed as inconclusive are left out. Calls of active or inactive are those of the source. Calls follow the shape of the dose curve; as a rule, active = well fitted inhibition curve with a large enough effect; inconclusive = small, poorly fitted or top-dose-only effect, or effect the other way; inactive = flat fitted curve, though single readings scatter.

By UniProt entry, the sequences of proteins in these tests, tags left out. Residues count along the entry.
UniProt P10636, 561-689 P618L limits assumed: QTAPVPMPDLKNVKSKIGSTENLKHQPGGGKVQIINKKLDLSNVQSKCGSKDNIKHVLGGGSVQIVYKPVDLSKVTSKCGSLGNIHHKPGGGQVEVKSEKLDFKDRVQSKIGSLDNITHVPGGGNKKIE

These molecules were tested against Microtubule-associated protein tau (Homo sapiens) (UniProt P10636) (assay: qHTS for Inhibitors of Tau Fibril Formation, Fluorescence Polarization). Settings: K18 P301L tau heparin fibrillization, Alexa594 FP, 6 h; at 57.7 µM (top of the series).
Excerpt: NIH Molecular Libraries Probe Production Network [MLPCN]
NIH Chemical Genomics Center [NCGC]
Assay Provider: Carlo Ballatore, University of Pennsylvania
The microtubule-associated protein tau is an abundant protein in the axons of neurons that stabilizes microtubules. With its ability to modulate microtubule dynamics, tau contributes directly or indirectly, to key structural and regulatory cellular functions. Particularly important is the influence tau exerts on axonal transport, which allows signaling molecules, trophic factors and other essential cellular constituents to travel along the axons. Under pathological conditions, tau becomes sequestered into insoluble aggregates called neurofibrillary tangles. This phenomenon is believed to have pathological consequences by promoting axonal transport deficits that ultimately lead to synaptic dysfunction and neuronal loss. To identify inhibitors of tau aggregation, a heparin-induced tau fibril formation assay was used that employed a recombinantly expressed fragment of tau, K18 (Q242-E372), bearing a P301L mutation (Gustke et al. 1994; Hong et al. 1998).
Gustke, N., B. Trinczek, et al. (1994). "Domains of tau protein and interactions with microtubules." Biochemistry 33(32): 9511-22.
Hong, M., V. Zhukareva, et al. (1998).
Li, W. and V. M. Lee (2006). "Characterization of two VQIXXK motifs for tau fibrillization in vitro." Biochemistry 45(51): 15692-701.
von Bergen, M., S. Barghorn, et al. (2001). "Mutations of tau protein in frontotemporal dementia promote aggregation of paired helical filaments by enhancing local beta-structure." J Biol Chem 276(51): 48165-74.
NCGC Assay Protocol Summary:
For screening, 2 uL/well human K18 P301L (15 uM unlabeled and 0.24 uM Alexa 594-labeled tau final concentrations) in reagent buffer (100 mM sodium acetate pH 7) was dispensed into black solid 1536-well plates (Grenier) using a solenoid-based dispenser. Following transfer of 23 nL compound or DMSO vehicle by a pin tool, 2 uL/well heparin (20 uM final concentration) in reagent buffer was added and the plate centrifuged 15 s at 1000 RPM. Plates were incubated 6 hr at 37 C and then 1 uL/well ThT (30 uM final concentration) was added. After a 1 hr ambient incubation, the plates were read by an Envision (Perkin Elmer) to monitor Alexa 594 FP (555 nm excitation and 632 nm emission).
Keywords: NIH Roadmap, MLPCN, MLI, MLSMR, NCGC, qHTS, tau, tauopathies, Alzheimer's disease, fibril, neurodegeneration, aggregation
% is scaled to controls: 0 for no effect and ±100 for the full control effect.
Also: nearly all actives have a fitted effect of over 55% in size.

**Q.** With `O=C(NCC1(N2CCCCC2)CCCCC1)c1cc([N+](=O)[O-])ccc1Cl` as the molecule, how does the activity, negative = inhibition read?
**A.** inactive: 2.86%

**Q.** `CN(C)C1(CNC(=O)c2ccccc2F)CCCCC1` was tested. Which activity, negative = inhibition did it give?
**A.** inactive: 2.44%

**Q.** Which activity, negative = inhibition does the source give for `CN(C)C1(CNC(=O)c2cccc(Cl)c2)CCCCC1` here?
**A.** inactive: -1.55%

**Q.** With `CC(C)N1C(=O)CC2(CCN(CCOC(=O)C(O)(c3ccccc3)c3ccccc3)CC2)C1=O` as the molecule, how does the activity, negative = inhibition read?
**A.** inactive: -5.92%

**Q.** Which activity, negative = inhibition does the source give for `CCCCOc1ccccc1C(=O)NCC1(N(C)C)CCCCC1` here?
**A.** inactive: -9.78%

**Q.** Which activity, negative = inhibition does the source give for `CN(C)C1CCCC1OC(=O)C(O)(c1ccccc1)c1ccccc1` (stereo unspecified) here?
**A.** inactive: 4.32%

**Q.** With `CN(C)C1(CNC(=O)c2ccccc2[N+](=O)[O-])CCCCC1` as the molecule, how does the activity, negative = inhibition read?
**A.** inactive: -10%

**Q.** `Cc1ccccc1C(=O)NCC1(N2CCCCC2)CCCCC1` was tested. Which activity, negative = inhibition did it give?
**A.** inactive: -2.6%

**Q.** For `CCOc1cccc(C(=O)NCC2(N(C)C)CCCCC2)c1`, which activity, negative = inhibition is on record?
**A.** inactive: 6.73%

**Q.** Which activity, negative = inhibition does the source give for `CCN1CCCC(OC(=O)C2(O)c3ccccc3C=Cc3ccccc32)C1` (stereo unspecified) here?
**A.** inactive: 8.03%

**Q.** With `C=CCN1CCN(CCOC(=O)C(O)(c2ccccc2)c2ccccc2)CC1` as the molecule, how does the activity, negative = inhibition read?
**A.** inactive: 2.73%

**Q.** For `COc1cccc(C(=O)NCC2(N3CCCCC3)CCCCC2)c1`, which activity, negative = inhibition is on record?
**A.** inactive: 0.0116%

**Q.** For `COc1ccc(C(=O)NCC2(N(C)C)CCCCC2)cc1Cl`, which activity, negative = inhibition is on record?
**A.** inactive: 5.86%

**Q.** With `CC(C)COc1ccc(C(=O)NCC2(N(C)C)CCCCC2)cc1` as the molecule, how does the activity, negative = inhibition read?
**A.** inactive: -0.0311%

**Q.** For `COc1cccc(C(=O)NCC2(N3CCOCC3)CCCCC2)c1`, which activity, negative = inhibition is on record?
**A.** inactive: -2.84%

**Q.** With `O=C(OC1CN2CCC1CC2)C(CO)(c1ccccc1)c1ccccc1` (stereo unspecified) as the molecule, how does the activity, negative = inhibition read?
**A.** inactive: -5.85%

**Q.** With `CC(C)Oc1ccc(C(=O)NCC2(N(C)C)CCCCC2)cc1` as the molecule, how does the activity, negative = inhibition read?
**A.** inactive: 4.72%

**Q.** For `CN(C)c1cccc(C(=O)NCC2(N(C)C)CCCCC2)c1`, which activity, negative = inhibition is on record?
**A.** inactive: 2.5%

**Q.** For `COc1ccc(Br)c(C(=O)NCC2(N3CCCCC3)CCCCC2)c1`, which activity, negative = inhibition is on record?
**A.** inactive: -13.1%

**Q.** Which activity, negative = inhibition does the source give for `COc1cc(C(=O)NCC2(N(C)C)CCCCC2)cc(OC)c1OC` here?
**A.** inactive: -0.425%

**Q.** With `Cc1cccc(C(=O)NCC2(N(C)C)CCCCC2)c1` as the molecule, how does the activity, negative = inhibition read?
**A.** inactive: -4.11%
